Measured values: patent US20140030266A1

Tests used:
[1] = biological target: MIF receptor CD74 ectodomain (CD74 73-232, sCD74) (UniProt P04233); test: SPR (BIAcore 2000), sCD74 immobilized, ligand in solution
[2] = biological target: MIF receptor CD74 ectodomain (CD74 73-232, sCD74) (UniProt P04233); test: SPR (BIAcore 2000), sCD74 immobilized

B1: human macrophage migration inhibitory factor (MIF), recombinant (ligand, UniProt P14174 2-115, looked up)
chain: PMFIVNTNVPRASVPDGFLSELTQQLAQATGKPPQYIAVHVVPDQLMAFGGSSEPCALCSLHSIGKIGGAQNRSYSKLLCGLLAERLRISPDRVYINYYDMNAANVGWNNSTFA
Kd [1]: 1.4 nM | fold lower dissociation rate (kd) than D-DT [2]: 11 fold | koff [2]: 6e-05 s⁻¹ | kon [2]: 43000 M⁻¹ s⁻¹
